According to PubChem BioAssay AID633 (Emory University Molecular Libraries Screening Center, 2007):
Only a part is listed here, and it is no random draw. Active and inactive are the calls of the source.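 Rule for the calls: active = compounds whose percent inhibition of the receptor-coactivator binding signal exceeds about 50% in the single-dose screen (limit read from the data); inactive = the rest.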

By UniProt entry, the sequences of proteins in these tests, tags left out.
UniProt Q92731, whole entry, looked up: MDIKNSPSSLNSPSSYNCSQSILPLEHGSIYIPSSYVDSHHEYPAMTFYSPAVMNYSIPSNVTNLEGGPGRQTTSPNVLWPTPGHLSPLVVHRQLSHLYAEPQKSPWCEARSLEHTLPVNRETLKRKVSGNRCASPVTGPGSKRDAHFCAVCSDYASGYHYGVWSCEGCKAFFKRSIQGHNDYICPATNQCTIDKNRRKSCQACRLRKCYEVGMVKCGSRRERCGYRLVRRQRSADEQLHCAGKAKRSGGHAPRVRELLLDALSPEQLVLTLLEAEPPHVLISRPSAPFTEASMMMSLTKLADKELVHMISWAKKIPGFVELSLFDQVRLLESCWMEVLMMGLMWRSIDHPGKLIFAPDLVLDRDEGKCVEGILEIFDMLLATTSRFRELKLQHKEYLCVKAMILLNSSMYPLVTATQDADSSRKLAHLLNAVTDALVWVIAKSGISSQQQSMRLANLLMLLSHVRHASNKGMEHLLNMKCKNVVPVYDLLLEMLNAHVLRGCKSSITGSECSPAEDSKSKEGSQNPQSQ

Molecular target: Estrogen receptor beta (Homo sapiens) (UniProt Q92731)
Assay: inhibitors of ERβ-SRC1 coactivator interaction, primary screen, biochemical, TR-FRET, ERβ LBD, SRC-1 peptide (AID 633);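 note: 0% = receptor plus peptide wells without compound and 100% = peptide-only wells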
Settings: TR-FRET ER-beta LBD / SRC1-Cy5 peptide binding; at 25.6 µM; hits give high values

Compound | inhibition
CCc1nc2c(n1)c1c(non1O)c1c2no[n+]1[O-] | inactive: -1.62%
O=[N+]([O-])c1cccc2n[nH]nc12 | inactive: 10.4%
CN1CCCC(OC(=O)C(c2ccccc2)c2ccccc2)C1 (stereo unspecified) | inactive: -5.06%
Cc1c2non([O-])c-2c(C)[n+](=O)[n+]1[O-] | inactive: 4.8%
Oc1ccccc1CNc1ccccn1 | inactive: 1.39%
CCOP(=O)(Nc1ccccc1)OCC | inactive: -2.57%
COC(=O)c1cc2c(s1)N=C(c1ccccc1)N(C)P2(=O)N1CCOCC1 (stereo unspecified) | inactive: -21%
O=P1(Nc2nc3ccc(Cl)cc3s2)COc2ccccc2O1 (stereo unspecified) | inactive: 5.46%
O=P(Nc1nccs1)(c1ccccc1)c1ccccc1 | inactive: 3.91%
c1nnnn1CCn1cnnn1 | inactive: -3.83%
O=C(OC1CN2CCC1CC2)c1cccc(Cl)c1 (stereo unspecified) | inactive: -4.76%
Cc1nn(-c2ccccc2)c2c1P(=O)(N1CCOCC1)N(C)C(c1ccccc1)=N2 (stereo unspecified) | inactive: -1.18%
O=P1(Nc2ncccn2)COc2ccccc2OC1 | inactive: 3.28%
Cc1ccc(OCC(=O)OC2CN3CCC2CC3)cc1 (stereo unspecified) | inactive: -2.85%
O=P1(Nc2ccc(Br)cn2)COc2ccccc2OC1 | inactive: 9.18%
O=P1(Nc2ccccn2)COc2ccccc2OC1 | inactive: 1.57%
Clc1n[nH]nc1-c1nn[nH][15n]1 | inactive: 5.02%
CC1(CBr)Cn2c(nc3ccccc3c2=O)S1 (stereo unspecified) | inactive: 18.4%
Cc1cccc(OCC(=O)OC2CN3CCC2CC3)c1 (stereo unspecified) | inactive: 1.29%
CCOP1(=S)c2c(C)nn(CCC#N)c2N=C(c2ccccc2F)N1C (stereo unspecified) | inactive: 0.11%
CCOP1(=S)c2c(C)nn(CCC#N)c2N=C(c2ccc(F)cc2)N1C (stereo unspecified) | inactive: -1.13%
ClCCSc1nnc(-c2cccnc2)o1 | inactive: 17.6%
O=C(OC1CN2CCC1CC2)C12CC3CC(CC(C3)C1)C2 (stereo unspecified) | inactive: 5.61%
COP1(=S)c2c(C)nn(CCC#N)c2N=C(c2ccc(F)cc2)N1C (stereo unspecified) | inactive: -4.93%
O=C(COc1ccccc1)OC1CN2CCC1CC2 (stereo unspecified) | inactive: 5.69%
CCC(C)N(CC(C)C)C(=S)SC(NC(C)=O)C(Cl)(Cl)Cl (stereo unspecified) | inactive: -9.6%
